Measured values published in paper PMC4941945 (Current protocols in pharmacology / editorial board, S.J. …, 2015).

By UniProt entry, the sequences of proteins in these tests, tags left out. Where a name states a change or a piece, a line headed by the entry shows the natural chain unless it says otherwise.
UniProt Q60492, whole entry: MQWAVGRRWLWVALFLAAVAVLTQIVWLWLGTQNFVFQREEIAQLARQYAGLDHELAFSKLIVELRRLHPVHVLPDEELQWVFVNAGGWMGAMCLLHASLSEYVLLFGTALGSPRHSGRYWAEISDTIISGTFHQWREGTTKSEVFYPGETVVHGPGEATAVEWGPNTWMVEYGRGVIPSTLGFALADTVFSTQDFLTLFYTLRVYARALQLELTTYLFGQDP

How the values were obtained:
sigma-1 receptor (S1R) [1] = conditions: read-out: KI S1R; ref 4 Pal A et al. (2007) Molecular Pharmacology 72:921-933; cited from earlier work
Sigma-1 receptor (S1R) [2] = target: Sigma-1 receptor (S1R) (Cavia porcellus, UniProt Q60492); assay: Saturation binding of [3H]-; conditions: 37°C, tissue membranes

SMILES	Ki (sigma-1 receptor (S1R) [1]) [nM]	time to reach equilibrium (Sigma-1 receptor (S1R) [2])
CC(Cc1ccc(C(C)(C)C)cc1)CN1C[C@@H](C)O[C@@H](C)C1 (some centres unmarked) [Fenpropimorph]	9.3	
CC(C)=CCN1CC[C@]2(C)c3cc(O)ccc3C[C@H]1[C@H]2C [[^3H]-(+)-pentazocine]		at least 90 min
